Test results taken from patent US20070281910A1, “Salicyl alcohol creatine phosphate prodrugs, compositions and uses thereof” (XenoPort, Inc., priority 2006, published 2007).

Sequences of proteins named here, by UniProt entry; tags and fusion partners are left off. A change or cut given only in a name is not applied to a line headed by its entry.
UniProt Q9Y289: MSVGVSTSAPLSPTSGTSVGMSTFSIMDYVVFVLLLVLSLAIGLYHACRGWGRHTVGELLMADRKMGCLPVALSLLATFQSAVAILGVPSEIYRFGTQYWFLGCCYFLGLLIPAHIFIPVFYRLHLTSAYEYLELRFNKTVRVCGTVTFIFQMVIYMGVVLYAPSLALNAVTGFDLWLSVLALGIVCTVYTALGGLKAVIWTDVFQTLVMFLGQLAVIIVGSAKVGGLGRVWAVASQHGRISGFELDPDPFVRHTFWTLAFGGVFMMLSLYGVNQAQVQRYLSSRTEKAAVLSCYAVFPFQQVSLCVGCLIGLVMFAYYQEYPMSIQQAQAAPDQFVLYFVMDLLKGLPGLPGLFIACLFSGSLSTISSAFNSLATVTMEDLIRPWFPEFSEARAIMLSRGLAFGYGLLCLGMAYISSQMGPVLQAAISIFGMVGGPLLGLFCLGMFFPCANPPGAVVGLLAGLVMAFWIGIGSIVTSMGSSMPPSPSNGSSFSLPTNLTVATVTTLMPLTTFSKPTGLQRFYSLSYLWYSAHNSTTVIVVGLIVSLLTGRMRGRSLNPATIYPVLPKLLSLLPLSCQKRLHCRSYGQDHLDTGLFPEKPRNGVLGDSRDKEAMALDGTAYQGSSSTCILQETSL

Key:
[1] = Chemical stability in pH buffers; settings: for Chemical Stability, pH 2.0: pH 2.0 buffer; for Chemical Stability, pH 7.4: pH 7.4 buffer; for Chemical Stability, pH 8.0: pH 8.0 buffer
[2] = Enzymatic stability in Caco-2 homogenate S9; settings: 37° C.
[3] = Enzymatic stability in rat plasma
SMVT transporter = SMVT transporter (Homo sapiens, UniProt Q9Y289); experiment: Uptake in HEK cells induced / not induced to express SMVT; settings: 0.1 mM, SMVT induced vs not induced, FIG. 5
[4] = Enzymatic stability in rat liver S9; settings: 37° C.

## CN(CC(=O)O)C(=N)NP1(=O)OCc2ccccc2O1 (stereo not shown)
[1]; Time 0 h
  Chemical Stability, pH 2.0: 100.0
  Chemical Stability, pH 7.4: 100.0
  Chemical Stability, pH 8.0: 100.0
[1]; Time 0.5 h
  Chemical Stability, pH 2.0: 74.9
  Chemical Stability, pH 7.4: 107.4
  Chemical Stability, pH 8.0: 97.7
[1]; Time 1 h
  Chemical Stability, pH 2.0: 60.5
  Chemical Stability, pH 7.4: 100.2
  Chemical Stability, pH 8.0: 97.6
[1]; Time 3 h
  Chemical Stability, pH 2.0: 33.8
  Chemical Stability, pH 7.4: 103.7
  Chemical Stability, pH 8.0: 111.7
[2]; Time 0 h
  Enzymatic Stability, Caco-2: 100.0
[2]; Time 0.5 h
  Enzymatic Stability, Caco-2: 86.4
[2]; Time 1 h
  Enzymatic Stability, Caco-2: 105.8
[2]; Time 3 h
  Enzymatic Stability, Caco-2: 91.8
[2]; Time 6 h
  Enzymatic Stability, Caco-2: 86.5
[3]; Time 0 h
  Enzymatic Stability, Rat Plasma: 100.0
[3]; Time 0.5 h
  Enzymatic Stability, Rat Plasma: 86.3
[3]; Time 1 h
  Enzymatic Stability, Rat Plasma: 85.2
[3]; Time 3 h
  Enzymatic Stability, Rat Plasma: 103.0
[3]; Time 6 h
  Enzymatic Stability, Rat Plasma: 90.9
SMVT transporter
  transporter specific uptake into HEK cells: transported across the plasma membrane of HEK cells via the SMVT transporter
[4]; Time 0 h
  Enzymatic Stability, Rat Liver S9: 100.0
[4]; Time 0.5 h
  Enzymatic Stability, Rat Liver S9: 78.4
[4]; Time 1 h
  Enzymatic Stability, Rat Liver S9: 105.6
[4]; Time 3 h
  Enzymatic Stability, Rat Liver S9: 83.5
[4]; Time 6 h
  Enzymatic Stability, Rat Liver S9: 78.1
